# Tested on: human μ-opioid receptor (hMOR)
# Test: Two-microelectrode voltage-clamp of opioid receptor-activated GIRK1/GIRK2 current in oocytes expressing hMOR
# Type: cell-based
# Details: X. laevis oocytes co-expressing GIRK1/GIRK2, RGS4 and hMOR; −70 mV; HK solution; room temperature; morphine 1 μM, PnPP-19 1 or 10 μM
compound,measurement,value
CN1CC[C@]23c4c5ccc(O)c4O[C@H]2[C@@H](O)C=C[C@H]3[C@H]1C5 [morphine],activation of hMOR (agonist-gated GIRK1/GIRK2 inward K+ current),agonist-gated currents evoked

# — article PMC5793130, “The Peptide PnPP-19, a Spider Toxin Derivative, Activates μ-Opioid Receptors and Modulates Calcium Channels” (Toxins, 2018)
